The target in the assay is T1, uterine OT receptors (Rattus norvegicus, UniProt P70536).
T1 sequence (P70536 1-388): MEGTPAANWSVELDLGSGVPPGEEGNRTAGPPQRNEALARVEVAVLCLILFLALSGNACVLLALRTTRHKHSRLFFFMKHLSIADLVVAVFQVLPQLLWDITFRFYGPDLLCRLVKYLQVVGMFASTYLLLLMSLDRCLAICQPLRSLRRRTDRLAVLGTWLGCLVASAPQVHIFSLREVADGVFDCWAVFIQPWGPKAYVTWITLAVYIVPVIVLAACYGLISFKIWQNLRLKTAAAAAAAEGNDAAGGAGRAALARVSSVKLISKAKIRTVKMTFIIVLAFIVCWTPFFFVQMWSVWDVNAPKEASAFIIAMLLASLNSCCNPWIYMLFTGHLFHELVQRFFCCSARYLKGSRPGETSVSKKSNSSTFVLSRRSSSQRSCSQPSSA
The assay is described as follows: [3H]oxytocin radioligand binding assay, saturation binding. The settings on record: uterus crude membrane preparation. Details: species or system rats. The source says: The high affinity binding of [^3H] […] 1985 J. Clin. Endocrinol. Metab. 60:37.

Usually Kd stands for the concentration at which binding is half-saturated. A low value points to tighter binding. Turning to [tyrosyl, 3,5-[^3H]OT, the Kd turned out to be 0.7 nM.
